Measurements as given in publication PMC3039689, “Identification of Small Molecule Lead Compounds for Visceral Leishmaniasis Using a Novel Ex Vivo Splenic Explant Model System” (PLoS Neglected Tropical Diseases, 2011).

Assay: Cell toxicity (CC50) in the HepG2 cell line, CellTiter-Glo
Format: cell-based
Details: human, ATP luminescence, compound from screened library

For `Oc1c(Cl)cc(Cl)c(Cl)c1Cc1c(O)c(Cl)cc(Cl)c1Cl` [Hexachlorophene], the CC50 at 24 h was 71.4 µM.
